From the supplement of paper PMC11403291

Legend:
Test in all cases: apparent dissociation constant pKd app (kinobead competition) (-log10(M)); higher = stronger binding
TAOK1 = target: T1, TAOK1 (UniProt Q7L7X3)
T1 sequence (whole entry): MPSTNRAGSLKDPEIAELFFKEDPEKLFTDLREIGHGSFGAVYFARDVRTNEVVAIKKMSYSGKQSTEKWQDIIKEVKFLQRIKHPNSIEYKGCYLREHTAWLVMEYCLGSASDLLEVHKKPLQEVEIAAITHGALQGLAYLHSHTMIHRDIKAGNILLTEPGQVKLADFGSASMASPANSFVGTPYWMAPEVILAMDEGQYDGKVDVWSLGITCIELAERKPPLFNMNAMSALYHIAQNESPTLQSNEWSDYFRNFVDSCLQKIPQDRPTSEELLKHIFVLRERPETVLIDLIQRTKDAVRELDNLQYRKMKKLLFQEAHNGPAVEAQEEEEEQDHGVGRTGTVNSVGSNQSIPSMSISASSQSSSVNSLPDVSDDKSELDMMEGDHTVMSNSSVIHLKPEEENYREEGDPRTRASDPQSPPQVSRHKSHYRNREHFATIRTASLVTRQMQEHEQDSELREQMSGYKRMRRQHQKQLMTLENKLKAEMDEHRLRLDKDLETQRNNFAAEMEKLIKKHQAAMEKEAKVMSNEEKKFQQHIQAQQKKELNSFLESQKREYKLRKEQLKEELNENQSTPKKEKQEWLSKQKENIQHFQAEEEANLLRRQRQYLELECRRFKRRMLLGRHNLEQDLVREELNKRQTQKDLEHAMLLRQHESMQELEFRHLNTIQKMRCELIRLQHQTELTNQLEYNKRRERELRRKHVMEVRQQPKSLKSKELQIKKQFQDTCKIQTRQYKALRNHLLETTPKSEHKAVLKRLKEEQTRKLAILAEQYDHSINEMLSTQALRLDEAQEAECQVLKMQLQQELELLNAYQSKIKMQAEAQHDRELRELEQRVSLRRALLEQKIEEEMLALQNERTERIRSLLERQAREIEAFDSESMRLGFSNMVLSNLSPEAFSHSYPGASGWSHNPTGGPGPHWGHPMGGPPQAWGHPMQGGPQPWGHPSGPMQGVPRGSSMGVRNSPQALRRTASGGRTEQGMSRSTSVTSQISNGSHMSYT

MAP4K3 = target: T2, MAP4K3 (UniProt Q8IVH8)
T2 sequence (whole entry): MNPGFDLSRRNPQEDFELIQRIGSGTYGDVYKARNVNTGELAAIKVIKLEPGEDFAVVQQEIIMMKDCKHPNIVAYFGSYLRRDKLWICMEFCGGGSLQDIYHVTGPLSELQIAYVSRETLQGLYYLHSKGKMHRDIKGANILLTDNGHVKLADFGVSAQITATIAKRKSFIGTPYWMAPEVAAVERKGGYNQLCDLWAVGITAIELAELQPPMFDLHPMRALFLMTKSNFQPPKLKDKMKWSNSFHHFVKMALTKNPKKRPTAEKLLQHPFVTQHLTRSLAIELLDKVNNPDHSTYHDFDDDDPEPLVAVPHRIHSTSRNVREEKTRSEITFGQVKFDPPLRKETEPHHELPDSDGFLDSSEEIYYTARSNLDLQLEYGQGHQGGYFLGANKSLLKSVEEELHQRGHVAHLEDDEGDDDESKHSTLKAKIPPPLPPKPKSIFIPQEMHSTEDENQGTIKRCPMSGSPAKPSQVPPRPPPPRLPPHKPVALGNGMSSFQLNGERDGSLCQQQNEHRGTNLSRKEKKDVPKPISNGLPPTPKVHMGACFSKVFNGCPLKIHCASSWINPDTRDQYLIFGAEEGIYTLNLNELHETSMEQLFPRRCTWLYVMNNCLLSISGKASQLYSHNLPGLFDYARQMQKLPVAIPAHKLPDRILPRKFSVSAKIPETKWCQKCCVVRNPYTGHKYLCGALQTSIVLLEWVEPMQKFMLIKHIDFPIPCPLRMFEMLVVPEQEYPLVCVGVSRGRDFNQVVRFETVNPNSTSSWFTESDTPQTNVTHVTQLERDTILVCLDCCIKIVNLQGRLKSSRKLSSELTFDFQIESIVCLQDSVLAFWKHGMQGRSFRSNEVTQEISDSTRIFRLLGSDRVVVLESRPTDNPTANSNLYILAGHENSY

ADRBK1 = target: T3, ADRBK1 (UniProt P25098)
T3 sequence (whole entry): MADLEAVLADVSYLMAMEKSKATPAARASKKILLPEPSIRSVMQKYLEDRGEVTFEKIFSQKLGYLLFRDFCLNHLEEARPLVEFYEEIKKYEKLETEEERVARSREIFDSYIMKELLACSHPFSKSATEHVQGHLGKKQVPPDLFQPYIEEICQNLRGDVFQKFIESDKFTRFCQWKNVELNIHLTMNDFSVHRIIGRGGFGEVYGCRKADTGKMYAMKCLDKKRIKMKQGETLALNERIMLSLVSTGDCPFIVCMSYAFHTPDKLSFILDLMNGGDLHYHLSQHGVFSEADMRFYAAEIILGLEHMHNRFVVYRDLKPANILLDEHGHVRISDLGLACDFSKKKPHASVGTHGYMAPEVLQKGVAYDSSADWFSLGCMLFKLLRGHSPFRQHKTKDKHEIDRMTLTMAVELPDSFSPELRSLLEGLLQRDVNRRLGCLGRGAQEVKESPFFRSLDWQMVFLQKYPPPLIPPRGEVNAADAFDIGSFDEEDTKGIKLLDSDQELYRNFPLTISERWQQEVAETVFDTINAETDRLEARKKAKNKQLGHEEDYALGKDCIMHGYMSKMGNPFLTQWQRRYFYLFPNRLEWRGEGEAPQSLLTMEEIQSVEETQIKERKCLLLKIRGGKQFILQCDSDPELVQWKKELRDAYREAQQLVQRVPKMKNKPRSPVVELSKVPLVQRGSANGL

Measured: apparent dissociation constant pKd app (-log10)

NC(=O)c1cccc2cn(-c3ccc([C@@H]4CCCNC4)cc3)nc12 [Niraparib]
< 4.6: all assays above

Cn1ncnc1[C@H]1c2n[nH]c(=O)c3cc(F)cc(c23)N[C@@H]1c1ccc(F)cc1 [Talazoparib]
< 4.6: all assays above

O=C(c1cc(Cc2n[nH]c(=O)c3ccccc23)ccc1F)N1CCN(C(=O)C2CC2)CC1 [Olaparib]
< 4.6: all assays above
